The list shows a part of the results, in another mix than the full data. Results filed as inconclusive are left out. Activity calls are given as the source filed them. Rule for the calls: active = hit-call score of the fitted dose curve at least 0.9, where 1 is the maximum; inconclusive = response in the unintended direction; inactive = score below 0.9.
Molecular target: Androgen receptor (Homo sapiens) (UniProt P10275)
Assay: ATG_AR_TRANS: Attagene TRANS-FACTORIAL HepG2 Assay for human Androgen Receptor (AR) (AID 2282973)
Conditions: HepG2 Attagene TRANS-FACTORIAL AR reporter transcription
Method: ATG_TRANS is a cell-based, multiplexed-readout assay that uses HepG2, a human liver cell line, with measurements taken at 24 hours after chemical dosing in a 24-well plate.ATG_AR_TRANS is one of 30 assay component(s) measured or calculated from the ATG_TRANS assay. It is designed to make measurements of mRNA induction, a form of inducible reporter, as detected with fluorescence intensity signals by Reverse transcription polymerase chain reaction (RT-PCR) and Capillary electrophoresis technology.Data from the assay component ATG_AR_TRANS was analyzed into 1 assay endpoint. This assay endpoint, ATG_AR_TRANS, was analyzed in the positive analysis fitting direction relative to DMSO as the negative control and baseline of activity. Using a type of inducible reporter, measures of mRNA for gain-of-signal activity can be used to understand the reporter gene at the transcription factor-level as they relate to the gene AR. Furthermore, this assay endpoint can be referred to as a primary readout, because this assay has produced multiple assay endpoints where this one serves a reporter gene function. To generalize the intended target to other relatable targets, this assay endpoint is annotated to the nuclear receptor intended target family, where the subfamily is steroidal.
Human liver HepG2 cells are transiently transfected with multiple reporter transcription units (MRTUs) in 6-well plates using FuGene 6 reagent (Roche; 3 ml FuGene/1 mg DNA). The MRTU constructs are regulated by a cis-regulating element (promoter). […] A major difference between the CIS and TRANS system is that in CIS activities of endogenous TFs are measured, whereas the TRANS assay evaluates changes in activities of exogenous, chimeric NR-Gal4 proteins. […] At the end of 24 hour incubation, total RNA was isolated using TriZol reagent (Invitrogen). The isolated RNA is then reverse-transcribed using oligo(dT) primer and Mo-MLV reverse transcriptase (Invitrogen) with DNAse I (Ambion) treatment for 30 min. The one-tenth of the produced cDNA was amplified by PCR using Taq DNA polymerase (Invitrogen) and two reporter sequence-specific primers. The PCR products were fluorescently labeled by primer extension with 6-arboxyfluorescein (6-FAM) 5'-labeled reporter sequence-specific primer (2 min at 95 C, 20 s at 68 C and 10 min at 72 C) and these products were digested with 5U of HpaI (New England Biolabs) for 2h at 37 C. The fragments were purified using Qiaquick PCR columns (Qiagen), analyzed on an ABI 3130xL genetic analyzer (Applied Biosystems) with peak positions identified by using a set of X-rhodamine (ROX)-labeled MapMarker1000 molecular weight standards (BioVentures). The raw capillary electrophoresis data was processed using Attagraph software (Attagene).

Chains of the proteins cited; added tags and fusions are not shown. Lines headed by an entry give the natural chain unless they say otherwise; changes in a name come on top.
UniProt P10275: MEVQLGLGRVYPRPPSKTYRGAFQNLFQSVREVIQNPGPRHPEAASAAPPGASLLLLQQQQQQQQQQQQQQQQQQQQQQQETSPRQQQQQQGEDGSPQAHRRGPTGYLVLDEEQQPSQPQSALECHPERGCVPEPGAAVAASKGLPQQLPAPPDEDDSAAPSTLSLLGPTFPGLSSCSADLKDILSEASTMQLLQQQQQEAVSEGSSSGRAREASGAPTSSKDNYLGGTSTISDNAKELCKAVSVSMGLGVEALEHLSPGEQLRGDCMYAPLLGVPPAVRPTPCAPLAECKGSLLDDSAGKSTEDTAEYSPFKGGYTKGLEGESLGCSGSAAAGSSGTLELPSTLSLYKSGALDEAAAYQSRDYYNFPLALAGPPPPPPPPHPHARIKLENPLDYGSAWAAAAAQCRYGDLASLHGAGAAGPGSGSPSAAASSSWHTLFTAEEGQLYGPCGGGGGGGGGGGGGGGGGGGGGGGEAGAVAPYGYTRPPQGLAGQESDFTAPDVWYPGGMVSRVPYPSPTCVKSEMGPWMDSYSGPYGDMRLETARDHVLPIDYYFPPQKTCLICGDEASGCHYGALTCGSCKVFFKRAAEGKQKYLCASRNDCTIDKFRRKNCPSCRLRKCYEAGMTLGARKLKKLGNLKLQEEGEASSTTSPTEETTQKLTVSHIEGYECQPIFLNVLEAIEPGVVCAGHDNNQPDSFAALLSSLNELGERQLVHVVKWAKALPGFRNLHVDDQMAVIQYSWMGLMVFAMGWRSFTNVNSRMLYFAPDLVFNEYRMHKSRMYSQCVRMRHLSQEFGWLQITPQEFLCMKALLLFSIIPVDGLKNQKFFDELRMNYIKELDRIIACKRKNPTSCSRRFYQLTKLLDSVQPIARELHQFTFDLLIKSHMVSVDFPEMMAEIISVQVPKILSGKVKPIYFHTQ
UniProt P62508: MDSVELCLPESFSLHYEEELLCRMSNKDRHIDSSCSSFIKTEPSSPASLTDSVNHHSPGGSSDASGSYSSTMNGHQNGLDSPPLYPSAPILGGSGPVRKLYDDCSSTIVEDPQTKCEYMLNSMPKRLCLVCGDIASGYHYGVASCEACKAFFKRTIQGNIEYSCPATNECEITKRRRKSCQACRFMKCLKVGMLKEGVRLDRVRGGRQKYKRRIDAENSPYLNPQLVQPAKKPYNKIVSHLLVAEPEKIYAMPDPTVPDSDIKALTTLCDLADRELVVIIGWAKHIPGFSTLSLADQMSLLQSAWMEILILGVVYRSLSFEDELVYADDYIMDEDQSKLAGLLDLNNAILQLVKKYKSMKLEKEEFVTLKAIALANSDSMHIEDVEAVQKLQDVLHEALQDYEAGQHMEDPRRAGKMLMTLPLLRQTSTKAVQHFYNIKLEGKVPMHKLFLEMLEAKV
UniProt P04150: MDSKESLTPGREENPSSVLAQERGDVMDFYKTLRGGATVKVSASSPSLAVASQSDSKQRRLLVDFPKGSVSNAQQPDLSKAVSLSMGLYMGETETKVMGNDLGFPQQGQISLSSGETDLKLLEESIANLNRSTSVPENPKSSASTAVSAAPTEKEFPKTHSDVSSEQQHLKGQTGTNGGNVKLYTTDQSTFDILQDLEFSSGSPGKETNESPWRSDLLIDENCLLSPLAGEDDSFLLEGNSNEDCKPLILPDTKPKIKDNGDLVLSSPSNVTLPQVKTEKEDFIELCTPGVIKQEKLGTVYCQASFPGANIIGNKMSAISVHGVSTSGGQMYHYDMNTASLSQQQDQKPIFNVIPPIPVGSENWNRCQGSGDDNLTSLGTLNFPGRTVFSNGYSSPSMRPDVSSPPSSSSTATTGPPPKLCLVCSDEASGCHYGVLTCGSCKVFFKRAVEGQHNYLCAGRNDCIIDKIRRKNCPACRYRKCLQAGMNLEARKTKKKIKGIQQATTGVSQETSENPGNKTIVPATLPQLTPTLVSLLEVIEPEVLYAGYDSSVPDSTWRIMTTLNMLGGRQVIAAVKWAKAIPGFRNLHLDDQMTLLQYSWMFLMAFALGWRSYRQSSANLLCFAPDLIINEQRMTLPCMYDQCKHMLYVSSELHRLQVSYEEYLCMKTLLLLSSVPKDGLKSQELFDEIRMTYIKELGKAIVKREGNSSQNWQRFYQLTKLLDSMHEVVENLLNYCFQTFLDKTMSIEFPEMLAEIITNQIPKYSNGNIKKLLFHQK
UniProt Q96RI1: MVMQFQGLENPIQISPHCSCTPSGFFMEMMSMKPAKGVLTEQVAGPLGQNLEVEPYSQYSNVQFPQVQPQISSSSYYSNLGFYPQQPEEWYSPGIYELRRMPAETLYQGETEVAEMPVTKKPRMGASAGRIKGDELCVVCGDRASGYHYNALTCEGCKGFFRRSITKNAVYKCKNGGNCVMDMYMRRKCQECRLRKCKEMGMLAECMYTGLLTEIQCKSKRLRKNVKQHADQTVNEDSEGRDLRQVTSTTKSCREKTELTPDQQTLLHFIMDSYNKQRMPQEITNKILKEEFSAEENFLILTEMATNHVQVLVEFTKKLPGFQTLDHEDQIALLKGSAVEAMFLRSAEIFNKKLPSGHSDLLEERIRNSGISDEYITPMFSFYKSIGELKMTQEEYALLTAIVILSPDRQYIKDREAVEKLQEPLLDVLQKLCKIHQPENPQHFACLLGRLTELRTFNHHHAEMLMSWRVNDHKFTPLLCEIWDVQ
UniProt Q13133, whole entry, looked up: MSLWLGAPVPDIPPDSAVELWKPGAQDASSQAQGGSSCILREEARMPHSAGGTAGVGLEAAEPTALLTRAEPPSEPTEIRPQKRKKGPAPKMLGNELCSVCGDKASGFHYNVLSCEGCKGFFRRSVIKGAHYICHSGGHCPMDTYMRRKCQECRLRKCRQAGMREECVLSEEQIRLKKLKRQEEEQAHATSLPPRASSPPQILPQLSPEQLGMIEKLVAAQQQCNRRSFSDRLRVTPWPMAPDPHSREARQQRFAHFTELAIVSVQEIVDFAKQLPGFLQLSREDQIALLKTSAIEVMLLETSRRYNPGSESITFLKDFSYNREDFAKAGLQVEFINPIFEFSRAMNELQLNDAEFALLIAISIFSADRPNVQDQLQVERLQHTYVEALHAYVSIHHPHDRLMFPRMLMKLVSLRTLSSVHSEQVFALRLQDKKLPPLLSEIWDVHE
UniProt P55055, whole entry, looked up: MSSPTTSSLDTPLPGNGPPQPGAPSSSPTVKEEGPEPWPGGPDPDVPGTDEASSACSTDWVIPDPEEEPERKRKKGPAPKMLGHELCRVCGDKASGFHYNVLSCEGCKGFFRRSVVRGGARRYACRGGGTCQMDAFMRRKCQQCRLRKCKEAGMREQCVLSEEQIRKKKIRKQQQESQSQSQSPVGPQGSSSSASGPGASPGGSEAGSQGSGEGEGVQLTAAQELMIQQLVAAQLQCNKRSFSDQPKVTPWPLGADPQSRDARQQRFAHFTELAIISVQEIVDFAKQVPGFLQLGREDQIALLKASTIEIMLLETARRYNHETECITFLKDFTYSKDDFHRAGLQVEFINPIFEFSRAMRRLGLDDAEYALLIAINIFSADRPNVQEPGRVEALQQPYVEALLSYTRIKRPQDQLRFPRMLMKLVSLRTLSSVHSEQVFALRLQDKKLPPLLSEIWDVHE
UniProt P41235: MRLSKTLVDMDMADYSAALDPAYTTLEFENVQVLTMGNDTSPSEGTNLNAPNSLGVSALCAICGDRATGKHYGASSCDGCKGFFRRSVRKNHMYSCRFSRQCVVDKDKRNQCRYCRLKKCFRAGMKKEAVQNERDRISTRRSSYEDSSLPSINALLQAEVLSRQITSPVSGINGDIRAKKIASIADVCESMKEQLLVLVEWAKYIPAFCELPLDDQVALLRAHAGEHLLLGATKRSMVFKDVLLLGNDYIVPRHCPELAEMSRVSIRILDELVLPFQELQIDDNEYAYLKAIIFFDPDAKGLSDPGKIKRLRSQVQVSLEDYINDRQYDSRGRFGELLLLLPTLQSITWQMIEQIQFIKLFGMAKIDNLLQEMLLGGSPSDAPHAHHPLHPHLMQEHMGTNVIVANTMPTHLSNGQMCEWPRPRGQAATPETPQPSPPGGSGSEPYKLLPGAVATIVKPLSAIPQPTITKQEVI

Row | SMILES | outcome
1 | CCCCOP(OCCCC)OCCCC | inactive
2 | O=C1C2CC=CCC2C(=O)N1SC(Cl)(Cl)C(Cl)Cl (stereo not given) | inactive
3 | O=[P+](Oc1ccccc1)Oc1ccccc1 | inactive
4 | O=C(Cl)Oc1ccccc1 | inactive
5 | O=C(Cl)OCCOC(=O)Cl | inactive

Tested on: not listed separately
Assay: ATG_M_19_TRANS: Attagene TRANS-FACTORIAL HepG2 Assay for M19 Transcription Factor (Internal Marker) (AID 2282974)
Conditions: HepG2 Attagene TRANS-FACTORIAL M19 internal marker reporter
Summary of the method: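 After transfection of HepG2 with GAL4-UAS-driven reporter constructs, cells are dosed for 24 h. Total RNA is reverse-transcribed, reporter sequences PCR-amplified and labelled, then HpaI-digested and sized by capillary electrophoresis.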

Row | SMILES | outcome
6 | Cc1cc([N+](=O)[O-])cc([N+](=O)[O-])c1O | inactive
7 | CCCCOP(OCCCC)OCCCC | inactive
8 | O=P(Cl)(Oc1ccccc1)Oc1ccccc1 | inactive
9 | O=C1C2CC=CCC2C(=O)N1SC(Cl)(Cl)C(Cl)Cl (stereo not given) | inactive
10 | N#CSc1ccc([N+](=O)[O-])cc1[N+](=O)[O-] | inactive
11 | CC(C)OP(=S)(OC(C)C)SCCNS(=O)(=O)c1ccccc1 | inactive
12 | CCCCC(CC)CO[P+](=O)OCC(CC)CCCC (stereo not given) | inactive
13 | CC(C)CCCCCCCOP(OCCCCCCCC(C)C)Oc1ccccc1 | inactive
14 | O=C(Cl)OCCOC(=O)Cl | inactive
15 | O=[p+]1oc2ccccc2c2ccccc21 (stereo not given) | inactive

Tested on: not listed separately
Assay: ATG_GAL4_TRANS: Attagene TRANS-FACTORIAL HepG2 Assay for GAL4 (Internal Marker) (AID 2282976)
Conditions: HepG2 Attagene TRANS GAL4 internal marker reporter
Summary of the method: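 HepG2 cells transiently transfected with multiplexed GAL4-UAS reporter constructs were dosed for 24 h. Reporter mRNA was measured by RT-PCR, 6-FAM primer extension, HpaI digestion and capillary electrophoresis, and gain of signal was fitted relative to DMSO.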

Row | SMILES | outcome
16 | CCCCOP(OCCCC)OCCCC | inactive
17 | ClP(Cl)c1ccccc1 | inactive
18 | O=[P+](Oc1ccccc1)Oc1ccccc1 | inactive
19 | CCCCC(CC)CO[P+](=O)OCC(CC)CCCC (stereo not given) | inactive
20 | O=C(Cl)OCCOC(=O)Cl | inactive
21 | CCCCO[P+](=O)OCCCC | inactive
22 | O=[p+]1oc2ccccc2c2ccccc21 (stereo not given) | inactive

Molecular target: Estrogen-related receptor gamma (Homo sapiens) (UniProt P62508)
Assay: ATG_ERRg_TRANS: Attagene TRANS-FACTORIAL HepG2 Assay for human Estrogen-Related Receptor gamma (ERRg) (AID 2282977);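 note: hits increase reporter signal over DMSO so potencies reflect activators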
Conditions: HepG2 Attagene TRANS reporter, ERRg transactivation
Summary of the method: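 HepG2 cells transiently transfected with multiplexed GAL4-UAS reporter units driven by chimeric NR-Gal4 proteins; 24 h exposure. Reporter mRNA quantified by RT-PCR, fluorescent labelling, HpaI digestion and capillary electrophoresis; gain of signal vs DMSO.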

Row | SMILES | outcome
23 | CC(C)OP(=S)(OC(C)C)SCCNS(=O)(=O)c1ccccc1 | inactive
24 | O=C(Cl)Oc1ccccc1 | inactive
25 | CCCCO[P+](=O)OCCCC | inactive
26 | O=[As]c1ccccc1 (stereo not given) | inactive

Molecular target: Glucocorticoid receptor (Homo sapiens) (UniProt P04150)
Assay: ATG_GR_TRANS: Attagene TRANS-FACTORIAL HepG2 Assay for human Glucocorticoid Receptor (GR) (AID 2282978);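 note: activators score as hits since higher reporter transcript over DMSO is fitted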
Conditions: HepG2 Attagene TRANS GR reporter, mRNA transcription

Row | SMILES | outcome
27 | Cc1cc([N+](=O)[O-])cc([N+](=O)[O-])c1O | inactive
28 | O=P(Cl)(Oc1ccccc1)Oc1ccccc1 | inactive
29 | ClP(Cl)c1ccccc1 | inactive
30 | O=C1C2CC=CCC2C(=O)N1SC(Cl)(Cl)C(Cl)Cl (stereo not given) | inactive
31 | CC(C)OP(=S)(OC(C)C)SCCNS(=O)(=O)c1ccccc1 | inactive
32 | CCCCC(CC)CO[P+](=O)OCC(CC)CCCC (stereo not given) | inactive
33 | CC(C)CCCCCCCOP(OCCCCCCCC(C)C)Oc1ccccc1 | inactive
34 | CN(C(=O)Cc1cccc2occc12)[C@H]1CC[C@@]2(CCCO2)C[C@@H]1N1CCCC1 | inactive
35 | O=[p+]1oc2ccccc2c2ccccc21 (stereo not given) | inactive

Molecular target: Bile acid receptor (Homo sapiens) (UniProt Q96RI1)
Assay: ATG_FXR_TRANS: Attagene TRANS-FACTORIAL HepG2 Assay for Farnesoid X Receptor (FXR) (AID 2282979);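 note: hits raise reporter mRNA above DMSO so AC50 marks FXR activation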
Conditions: HepG2 Attagene TRANS FXR-GAL4 reporter transcription
Summary of the method: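 HepG2 cells transiently transfected with reporter constructs in which a chimeric FXR-GAL4 protein drives a GAL4-UAS reporter; 24 h compound exposure. Reporter mRNA measured by RT-PCR, FAM labelling, HpaI digestion and capillary electrophoresis; gain-of-signal versus DMSO.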

Row | SMILES | outcome
36 | Cc1cc([N+](=O)[O-])cc([N+](=O)[O-])c1O | inactive
37 | O=[N+]([O-])c1ccc([N+](=O)[O-])cc1 | inactive
38 | CCCCOP(OCCCC)OCCCC | inactive
39 | O=C1C2CC=CCC2C(=O)N1SC(Cl)(Cl)C(Cl)Cl (stereo not given) | inactive
40 | N#CSc1ccc([N+](=O)[O-])cc1[N+](=O)[O-] | inactive
41 | O=C(Cl)Oc1ccccc1 | inactive
42 | O=[p+]1oc2ccccc2c2ccccc21 (stereo not given) | inactive

Molecular target: Oxysterols receptor LXR-alpha (Homo sapiens) (UniProt Q13133)
Assay: ATG_LXRa_TRANS: Attagene TRANS-FACTORIAL HepG2 Assay for human Liver X Receptor alpha (LXRa) (AID 2282980)
Conditions: HepG2 Attagene TRANS reporter, LXRa transactivation
Summary of the method: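 HepG2 cells were transiently transfected with multiplexed reporter units driven by chimeric LXRa–GAL4 fusion proteins, then dosed for 24 h. Reporter mRNA was quantified by RT-PCR, fluorescent labelling and capillary electrophoresis; gain of signal fitted against DMSO baseline.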

Row | SMILES | outcome
43 | Cc1cc([N+](=O)[O-])cc([N+](=O)[O-])c1O | inactive
44 | O=[N+]([O-])c1ccc([N+](=O)[O-])cc1 | inactive
45 | O=C1C2CC=CCC2C(=O)N1SC(Cl)(Cl)C(Cl)Cl (stereo not given) | inactive
46 | CC(C)OP(=S)(OC(C)C)SCCNS(=O)(=O)c1ccccc1 | inactive
47 | O=[P+](Oc1ccccc1)Oc1ccccc1 | inactive
48 | CC(C)CCCCCCCOP(OCCCCCCCC(C)C)Oc1ccccc1 | inactive
49 | O=C(Cl)Oc1ccccc1 | inactive
50 | O=[As]c1ccccc1 (stereo not given) | inactive

Molecular target: Oxysterols receptor LXR-beta (Homo sapiens) (UniProt P55055)
Assay: ATG_LXRb_TRANS: Attagene TRANS-FACTORIAL HepG2 Assay for human Liver X Receptor beta (LXRb) (AID 2282981)
Conditions: HepG2 Attagene TRANS GAL4-LXRb reporter, mRNA
Summary of the method: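 HepG2 cells transiently transfected with GAL4-UAS reporter units for chimeric NR-Gal4 proteins, dosed for 24 h. Reporter transcripts measured by RT-PCR and capillary electrophoresis; gain-of-signal fitting relative to DMSO.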

Row | SMILES | AC50 | outcome
51 | Cc1cc([N+](=O)[O-])cc([N+](=O)[O-])c1O | active: 29.2 µM | 
52 | O=[N+]([O-])c1ccc([N+](=O)[O-])cc1 |  | inactive
53 | O=P(Cl)(Oc1ccccc1)Oc1ccccc1 |  | inactive
54 | ClP(Cl)c1ccccc1 |  | inactive
55 | O=C1C2CC=CCC2C(=O)N1SC(Cl)(Cl)C(Cl)Cl (stereo not given) |  | inactive
56 | CC(C)OP(=S)(OC(C)C)SCCNS(=O)(=O)c1ccccc1 |  | inactive
57 | CCCCC(CC)CO[P+](=O)OCC(CC)CCCC (stereo not given) |  | inactive
58 | CC(C)CCCCCCCOP(OCCCCCCCC(C)C)Oc1ccccc1 |  | inactive
59 | O=C(Cl)Oc1ccccc1 |  | inactive
60 | CN(C(=O)Cc1cccc2occc12)[C@H]1CC[C@@]2(CCCO2)C[C@@H]1N1CCCC1 |  | inactive
61 | O=[As]c1ccccc1 (stereo not given) |  | inactive
62 | O=[p+]1oc2ccccc2c2ccccc21 (stereo not given) |  | inactive

Molecular target: Hepatocyte nuclear factor 4-alpha (Homo sapiens) (UniProt P41235)
Assay: ATG_HNF4a_TRANS: Attagene TRANS-FACTORIAL HepG2 Assay for human Hepatocyte Nuclear Factor 4 alpha (HNF4a) (AID 2282982)
Conditions: HepG2 HNF4a transactivation reporter, mRNA readout
Summary of the method: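 HepG2 cells transiently transfected with HNF4a-Gal4 chimera and GAL4-UAS reporter units, dosed for 24 h. Reporter mRNA measured by RT-PCR, fluorescent primer extension and capillary electrophoresis; gain-of-signal fitted relative to DMSO.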

Row | SMILES | outcome
63 | Cc1cc([N+](=O)[O-])cc([N+](=O)[O-])c1O | inactive
64 | CCCCOP(OCCCC)OCCCC | inactive
65 | O=C1C2CC=CCC2C(=O)N1SC(Cl)(Cl)C(Cl)Cl (stereo not given) | inactive
66 | N#CSc1ccc([N+](=O)[O-])cc1[N+](=O)[O-] | inactive
67 | CC(C)OP(=S)(OC(C)C)SCCNS(=O)(=O)c1ccccc1 | inactive
68 | O=[P+](Oc1ccccc1)Oc1ccccc1 | inactive
69 | CCCCC(CC)CO[P+](=O)OCC(CC)CCCC (stereo not given) | inactive
70 | O=C(Cl)Oc1ccccc1 | inactive
71 | O=C(Cl)OCCOC(=O)Cl | inactive
72 | CCCCO[P+](=O)OCCCC | inactive
73 | O=[As]c1ccccc1 (stereo not given) | inactive
74 | O=[p+]1oc2ccccc2c2ccccc21 (stereo not given) | inactive

Tested on: not listed separately
Assay: ATG_M_06_TRANS: Attagene TRANS-FACTORIAL HepG2 Assay for M06 Transcription Factor (Internal Marker) (AID 2282983)
Conditions: HepG2 Attagene TRANS M06 internal marker reporter
Summary of the method: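 HepG2 cells transiently transfected with multiplexed GAL4-UAS reporter transcription units; after 24 h compound exposure, reporter mRNA measured by RT-PCR, FAM-labelled primer extension, HpaI digestion and capillary electrophoresis. Gain-of-signal fitted versus DMSO baseline; background control readout.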

Row | SMILES | outcome
75 | O=[N+]([O-])c1ccc([N+](=O)[O-])cc1 | inactive
76 | ClP(Cl)c1ccccc1 | inactive
77 | O=C1C2CC=CCC2C(=O)N1SC(Cl)(Cl)C(Cl)Cl (stereo not given) | inactive
78 | O=[P+](Oc1ccccc1)Oc1ccccc1 | inactive
79 | CCCCC(CC)CO[P+](=O)OCC(CC)CCCC (stereo not given) | inactive
80 | CC(C)CCCCCCCOP(OCCCCCCCC(C)C)Oc1ccccc1 | inactive
81 | O=C(Cl)Oc1ccccc1 | inactive
82 | CN(C(=O)Cc1cccc2occc12)[C@H]1CC[C@@]2(CCCO2)C[C@@H]1N1CCCC1 | inactive
83 | O=C(Cl)OCCOC(=O)Cl | inactive
84 | CCCCO[P+](=O)OCCCC | inactive
85 | O=[As]c1ccccc1 (stereo not given) | inactive

Source: PubChem BioAssay (EPA / NIEHS)
